# Yeast mating assay 2: variants of the scFv Ab-95

From the AlphaSeq antibody data of Engelhart et al. 2022 (doi:10.1038/s41597-022-01779-4), copy in the FLAb collection.

Target peptide (SARS-CoV-2 spike, HR2 region): PDVDLGDISGINAS

Ab-95 is the parent antibody, in scFv form: VH, then three GGGGS repeats, then VL. The heavy chain is unchanged in all variants.
VH: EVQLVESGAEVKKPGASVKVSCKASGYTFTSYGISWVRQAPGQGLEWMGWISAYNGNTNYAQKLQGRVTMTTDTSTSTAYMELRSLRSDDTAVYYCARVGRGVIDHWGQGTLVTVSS
VL: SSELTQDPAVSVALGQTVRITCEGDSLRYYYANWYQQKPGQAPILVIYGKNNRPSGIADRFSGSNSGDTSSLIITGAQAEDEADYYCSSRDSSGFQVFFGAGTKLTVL

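The starting antibody came from a phage panning campaign against this peptide. Variants in AAYL52 differ from the parent at up to three CDR positions; double and triple changes were sampled at random. The scFvs were displayed on barcoded MATa yeast, the peptide on MATalpha yeast. Mating (16 h, 30 °C) was followed by selection of diploids and sequencing of their barcodes. Read counts were normalised to the haploid input and turned into Kd by a linear fit to BCL2-family pairs of known affinity, for each replicate. Mating was done three times.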

Each variant is given by its three light chain CDRs, as the data file delimits them; those of the parent are EGDSLRYYYAN, GKNNRPS, SSRDSSGFQVF.
Affinities are written as log10 Kd with Kd in nM; a lower number is a better binder.
Averages over replicates are reported, and they cover detected replicates only.
An entry "nd" has no value in the source: the pair was not observed among the diploids in that replicate. This suggests poor binding but is not conclusive.
Background: pairings of library AAYL52 with three empty control strains gave a value in 28% of cases (median 3.91, 5th percentile 2.90). Values in that range, when seen in few replicates, are hard to tell from nonspecific mating. For each scFv, signals with the empty controls are counted beside the result, with their mean in brackets.

CDR-L1,CDR-L2,CDR-L3,log10 Kd (nM) by replicate,"log10 Kd (nM), mean",empty controls
EHDSLRYYYAN,GKNNRPS,SDRDNSGFQVF,3.08 / 2.50 / 2.38,2.66,1 of 9 (2.94)
EGDSLRVYYAN,GKNNRPS,SSRISSGFQMF,3.13 / nd / 2.76,2.95,1 of 9 (4.89)
EGDSLRYYYAM,GKYNRPS,SSRDTSGFQVF,nd / nd / nd,nd,0 of 9
EGDFLRYYYAN,GKFNRPS,SSRDRSGFQVF,nd / 4.17 / nd,4.17,2 of 9 (4.50)
EGQSFRYYYAN,GKNNRPS,SYRDSSGFQVF,2.64 / 2.78 / 3.51,2.98,0 of 9
EGDSLRYYYAN,GGNNRPS,SSRDSRGFQVF,1.94 / 1.39 / 1.65,1.66,4 of 9 (3.81)
EGDSLRYYYAN,CKNNRPS,SSRDSRGFQEF,4.01 / 5.12 / nd,4.57,2 of 9 (3.51)
YGDSLRYYYAN,GKNERPL,SSRDSSGFQVF,2.32 / 2.53 / 2.43,2.43,5 of 9 (3.64)
EYDSLRYYYAN,GKINQPS,SSRDSSGFQVF,nd / nd / nd,nd,0 of 9
EGDSLRLWYAN,GKNNRPS,SSRDSSGFQNF,2.38 / 1.94 / 1.32,1.88,2 of 9 (3.71)
EGDSLRYYYAN,GKNNRPS,SSRQSSGSQVF,2.91 / 2.67 / 2.19,2.59,6 of 9 (4.06)
EGDSHRYYYAN,GKNNRIS,SFRDSSGFQVF,4.04 / nd / nd,4.04,4 of 9 (4.32)
EGYSLRYYYAN,GKNNRDS,SSRDSSGFQEF,3.28 / 3.50 / nd,3.39,1 of 9 (4.69)
EGDLLRYPYAN,GKNNRPE,SSRDSSGFQVF,2.59 / 2.31 / 2.05,2.32,2 of 9 (3.90)
EGDSLRYYYAN,GKHNYPS,SSRDSSGSQVF,4.23 / 3.28 / 3.46,3.66,0 of 9
EGDSLRYYYAN,GKNNRPS,SSRFSNHFQVF,2.18 / 2.73 / 1.82,2.25,3 of 9 (3.85)
EGDYLKHYYAN,GKNNRPS,SSRDSSGFQVF,3.26 / 2.43 / nd,2.85,1 of 9 (2.94)
EGDSLRYYCAN,GINNRPS,SSRDSSGFQVA,2.88 / 2.93 / nd,2.91,2 of 9 (4.23)
EGDSLAWYYAN,GKNTRPS,SSRDSSGFQVF,2.55 / 2.73 / 2.22,2.50,2 of 9 (3.87)
EDDSLRYYYAN,GKNNRPS,SSRDSSEFQVF,3.75 / 3.50 / 4.25,3.83,2 of 9 (3.07)
ECDSLRYYYAN,GKNNRPS,SSRDSSGFGVF,3.06 / 3.62 / 3.16,3.28,6 of 9 (4.08)
EGDSLRDYYAN,GKNDRPS,SSRDSSGFSVF,2.56 / 4.32 / 2.66,3.18,3 of 9 (4.07)
EGDHLRYYYAI,PKNNRPS,SSRDSSGFQVF,nd / nd / nd,nd,2 of 9 (3.67)
EGDTLRYYYAN,GKNNRPS,STRDSSGYQVF,2.38 / 1.87 / 2.04,2.09,0 of 9
EGDSLRYYYAN,GKNYRPS,SCRDSSGEQVF,2.90 / 2.62 / 1.99,2.51,1 of 9 (4.24)
EGDSLRYYYAN,GKIHRPS,SSRDSSGFQVH,4.55 / nd / 3.65,4.10,2 of 9 (3.60)
EGDSLFYYKAN,GKNSRPS,SSRDSSGFQVF,3.17 / 2.92 / 3.58,3.22,1 of 9 (4.21)
EGDSLVYYCAN,GKNNRPS,SSRDSSGFQDF,3.81 / 3.41 / 4.69,3.97,6 of 9 (4.09)
EGDSLRYYEHN,GKNLRPS,SSRDSSGFQVF,2.96 / 3.01 / 2.89,2.96,1 of 9 (4.83)
VDDSLRYYYAN,GKNNHPS,SSRDSSGFQVF,3.26 / 5.70 / nd,4.48,5 of 9 (4.21)
EGDSLRYKDAN,GKNNRPS,SSRDSSGLQVF,nd / nd / nd,nd,0 of 9
EGDSLRYYYAV,KKNNRPS,SSRDHSGFQVF,4.04 / 4.31 / nd,4.17,4 of 9 (4.39)
EGDSVAYYYAN,GKNNRPS,SIRDSSGFQVF,nd / 2.92 / 4.13,3.53,0 of 9
EGDSLRYYYAN,GKNNRPS,SSVFKSGFQVF,3.14 / 2.54 / 2.74,2.80,2 of 9 (3.35)
EGDSLRYYYAN,GKNNRRS,SSRDSPGFQDF,nd / nd / nd,nd,2 of 9 (3.91)
EGDSLRYYDYN,GKNNRPS,YSRDSSGFQVF,2.84 / 2.72 / 3.38,2.98,4 of 9 (4.66)
EGGSLGYYYAN,GNNNRPS,SSRDSSGFQVF,1.52 / 1.56 / 0.97,1.35,4 of 9 (4.31)
MGDSLRYYYAN,GKNNRPS,SSRDTSGFQVF,2.90 / 3.01 / 2.70,2.87,3 of 9 (4.43)
EGDSLRWYYAC,GKNNRPS,SSRDSSGFVVF,nd / nd / nd,nd,0 of 9
EGDSLPYYYAN,GKNNRPS,SGRDSSVFQVF,nd / nd / nd,nd,1 of 9 (4.41)
EGDSLRYYYAN,GKNNNPS,SSDDCSGFQVF,nd / 3.05 / 3.65,3.35,6 of 9 (4.53)
KGDSLRYYYAN,WKNNRPS,SSRDSSGLQVF,5.83 / 3.45 / nd,4.64,3 of 9 (4.40)
EGDSLRYYYAN,GKNNCPS,QSRDSSGGQVF,nd / 4.81 / nd,4.81,2 of 9 (4.03)
EGDKLRYYYAY,GKNNRPS,SSRDSSGFKVF,2.70 / 3.05 / 2.12,2.62,3 of 9 (4.35)
EGDSNRYYFAN,GKNNRPS,SSRDSSGFQVF,3.75 / 4.14 / 3.31,3.73,4 of 9 (3.99)
EGDSLRYYYAN,GKWNRPS,SSRDSSGFQAF,nd / 3.82 / 2.81,3.31,4 of 9 (3.91)
ESDSLRYAYAN,GKNNRPS,SSRDSHGFQVF,2.70 / 2.89 / 2.20,2.60,4 of 9 (3.94)
EGDSLRYGYDN,GKNNRPS,SSRRSSGFQVF,nd / 5.25 / nd,5.25,5 of 9 (3.49)
HGDSLRYYYAN,GKNNRPS,SSRDSQGFFVF,2.86 / 3.05 / 2.59,2.83,4 of 9 (4.09)
EGDSLRYYYAN,GQNNRPS,KSQDSSGFQVF,4.77 / nd / nd,4.77,3 of 9 (4.26)
EGDSLLYYYAN,RKNNRPS,SSRDSSGFQVF,nd / 4.43 / nd,4.43,4 of 9 (4.03)

Excerpt, the final 3 entries:

CDR-L1,CDR-L2,CDR-L3,log10 Kd (nM) by replicate,"log10 Kd (nM), mean",empty controls
HGDSLRYYYAN,GKNNRPS,SSRDSQGFFVF,2.86 / 3.05 / 2.59,2.83,4 of 9 (4.09)
EGDSLRYYYAN,GQNNRPS,KSQDSSGFQVF,4.77 / nd / nd,4.77,3 of 9 (4.26)
EGDSLLYYYAN,RKNNRPS,SSRDSSGFQVF,nd / 4.43 / nd,4.43,4 of 9 (4.03)